Measurements as given in patent US20260382616A1, “TREATMENT METHODS FOR SUBJECTS WITH NON-SMALL CELL LUNG CANCER HAVING AN ABERRATION IN EGFR” (published 2026).

Assay: Phase 1/2a study, safety
[1] = overall (N=73), regardless of grade
[2] = ≤65 mg BID (N=23), regardless of grade

C=CC(=O)N[C@H]1C=C(C)c2c(-c3cnc4ccccc4c3)c3c(N)ncnc3n2C1
Diarrhea (all dose levels): 30 % of patients
Dose reduction because of rash (all dose levels): three
Drug-related deaths (all dose levels): No drug-related deaths
Grade 3 or 4 ALT/AST increase (all dose levels): four
Pneumonitis possibly related to treatment (all dose levels): four
Rash (all dose levels): 80 % of patients
Treatment-related discontinuation, reason (all dose levels): allergic reaction
Treatment-related discontinuations due to fatigue (all dose levels): 1
Treatment-related discontinuations due to hepatic toxicity (all dose levels): 2
Treatment-related discontinuations due to pneumonitis (all dose levels): 2
Treatment-related serious AE diarrhea (all dose levels): 1
Treatment-related serious AE hypersensitivity reaction (all dose levels): 1
Treatment-related serious AE pneumonitis (all dose levels): 2
Grade 3 diarrhea, cases (both at the highest dose level tested): two
Pneumonitis, grade (case 3) (discontinued pembrolizumab and chemotherapy about 1 month before): grade 3
Dose-limiting toxicities, DLR (Day 1-21) (dose level 30, BID, 8 patients): 0
Dose-limiting toxicities, DLT (Day 22-EOT) (dose level 30, BID, 8 patients): 0
Dose-limiting toxicities, DLR (Day 1-21) (dose level 45, BID, 1 patient): 0
Dose-limiting toxicities, DLT (Day 22-EOT) (dose level 45, BID, 1 patient): 0
Dose-limiting toxicities, DLR (Day 1-21) (dose level 65, BID, 14 patients): 0
Dose-limiting toxicities, DLT (Day 22-EOT) (dose level 65, BID, 14 patients, hepatic): 1 (hepatic)
Dose-limiting toxicities, DLR (Day 1-21) (dose level 100, BID, 39 patients): 0
Dose-limiting toxicities, DLT (Day 22-EOT) (dose level 100, BID, 39 patients, pneumonitis): 1 (pneumonitis)
Dose-limiting toxicities, DLR (Day 1-21) (dose level 150, BID, 11 patients, diarrhea): 2 (diarrhea)
Dose-limiting toxicities, DLT (Day 22-EOT) (dose level 150, BID, 11 patients, pneumonitis, hepatic): 2 (pneumonitis,
Discontinued because of AST/ALT elevation (of four patients with grade 3 or 4 ALT/AST increase): Two of the four
Diarrhea, share grade 1 (of patients with diarrhea): 68%
Diarrhea, share grade 2 (of patients with diarrhea): 23%
Diarrhea, share grade 3 (of patients with diarrhea): 9%
Treatment-related rash, share grade 1 (of patients with rash): 70%
Treatment-related rash, share grade 2 (of patients with rash): 28%
Treatment-related rash, share grade 3 (of patients with rash): 2%
TEAE ≥Grade 3 ALT increased (overall (N=73)): 3 (4.1) No (%)
TEAE ≥Grade 3 AST increased (overall (N=73)): 3 (4.1) No (%)
TEAE ≥Grade 3 anemia (overall (N=73)): 8 (11.0) No (%)
TEAE ≥Grade 3 diarrhea (overall (N=73)): 3 (4.1) No (%)
TEAE ≥Grade 3 disease progression (overall (N=73)): 3 (4.1) No (%)
TEAE ≥Grade 3 dyspnea (overall (N=73)): 4 (5.5) No (%)
TEAE ≥Grade 3 pneumonia (overall (N=73)): 4 (5.5) No (%)
TRAE AST increased, number (overall (N=73), all grade): 8
TRAE AST increased, percent (overall (N=73), all grade): (11) %
TRAE alopecia, number (overall (N=73), all grade): 9
TRAE alopecia, percent (overall (N=73), all grade): (12) %
TRAE anemia, number (overall (N=73), all grade): 14
TRAE anemia, percent (overall (N=73), all grade): (19) %
TRAE decreased appetite, number (overall (N=73), all grade): 8
TRAE decreased appetite, percent (overall (N=73), all grade): (11) %
TRAE diarrhea, number (overall (N=73), all grade): 22
TRAE diarrhea, percent (overall (N=73), all grade): (30) %
TRAE dry skin, number (overall (N=73), all grade): 13
TRAE dry skin, percent (overall (N=73), all grade): (18) %
TRAE fatigue, number (overall (N=73), all grade): 15
TRAE fatigue, percent (overall (N=73), all grade): (21) %
TRAE nausea, number (overall (N=73), all grade): 12
TRAE nausea, percent (overall (N=73), all grade): (16) %
TRAE paronychia, number (overall (N=73), all grade): 23
TRAE paronychia, percent (overall (N=73), all grade): (32) %
TRAE rash, number (overall (N=73), all grade): 58
TRAE rash, percent (overall (N=73), all grade): (80) %
TRAE AST increased, number (overall (N=73), grade ≥3): 3
TRAE AST increased, percent (overall (N=73), grade ≥3): (4) %
TRAE alopecia, number (overall (N=73), grade ≥3): 0
TRAE anemia, number (overall (N=73), grade ≥3): 7
TRAE anemia, percent (overall (N=73), grade ≥3): (9.6) %
TRAE decreased appetite, number (overall (N=73), grade ≥3): 0
TRAE diarrhea, number (overall (N=73), grade ≥3): 2
TRAE diarrhea, percent (overall (N=73), grade ≥3): (3) %
TRAE dry eye, number (overall (N=73), grade ≥3): 0
TRAE dry skin, number (overall (N=73), grade ≥3): 0
TRAE fatigue, number (overall (N=73), grade ≥3): 0
TRAE nausea, number (overall (N=73), grade ≥3): 0
TRAE paronychia, number (overall (N=73), grade ≥3): 0
TRAE rash, number (overall (N=73), grade ≥3): 1
TRAE rash, percent (overall (N=73), grade ≥3): (1) %
TRAE stomatitis, number (overall (N=73), grade ≥3): 1
TRAE stomatitis, percent (overall (N=73), grade ≥3): (1) %
TEAE ALT increased, number (percent) [1]: 8 (11.0)
TEAE AST increased, number (percent) [1]: 10 (13.7)
TEAE alopecia, number (percent) [1]: 12 (16.4)
TEAE anemia, number (percent) [1]: 23 (31.5)
TEAE arthralgia, number (percent) [1]: 12 (16.4)
TEAE constipation, number (percent) [1]: 16 (21.9)
TEAE cough, number (percent) [1]: 16 (21.9)
TEAE decreased appetite, number (percent) [1]: 20 (27.4)
TEAE diarrhea, number (percent) [1]: 26 (35.6)
TEAE dizziness, number (percent) [1]: 10 (13.7)
TEAE dry skin, number (percent) [1]: 15 (20.5)
TEAE dyspnea, number (percent) [1]: 20 (27.4)
TEAE edema peripheral, number (percent) [1]: 10 (13.7)
TEAE fatigue, number (percent) [1]: 23 (31.5)
TEAE headache, number (percent) [1]: 11 (15.1)
TEAE insomnia, number (percent) [1]: 8 (11.0)
TEAE nausea, number (percent) [1]: 20 (27.4)
TEAE paronychia, number (percent) [1]: 26 (35.6)
TEAE pyrexia, number (percent) [1]: 10 (13.7)
TEAE rash, number (percent) [1]: 61 (83.6)
TEAE vomiting, number (percent) [1]: 14 (19.2)
Pneumonitis, grade (case 2) (patient with history of pneumonitis with osimertinib): grade 2
Safety and tolerability (recurrent or metastatic EGFR ex20ins NSCLC, previously treated): favorable safety and tolerability
Pneumonitis, grade (case 1) (resolved after dose hold and corticosteroids, resumed at same dose): grade 1
Pneumonitis, grade (case 4) (ultimately deemed unrelated, Pneumocystis jirovecii pneumonia): grade 3
TEAE ≥Grade 3 anemia (≤65 mg BID (N=23)): 5 (21.7) No (%)
TEAE ≥Grade 3 disease progression (≤65 mg BID (N=23)): 2 (8.7) No (%)
TRAE AST increased, number (≤65 mg BID (N=23), all grade): 3
TRAE AST increased, percent (≤65 mg BID (N=23), all grade): (13) %
TRAE alopecia, number (≤65 mg BID (N=23), all grade): 3
TRAE alopecia, percent (≤65 mg BID (N=23), all grade): (13) %
TRAE anemia, number (≤65 mg BID (N=23), all grade): 7
TRAE anemia, percent (≤65 mg BID (N=23), all grade): (30) %
TRAE decreased appetite, number (≤65 mg BID (N=23), all grade): 4
TRAE decreased appetite, percent (≤65 mg BID (N=23), all grade): (17) %
TRAE diarrhea, number (≤65 mg BID (N=23), all grade): 4
TRAE diarrhea, percent (≤65 mg BID (N=23), all grade): (17) %
TRAE dry eye, number (≤65 mg BID (N=23), all grade): 1
TRAE dry eye, percent (≤65 mg BID (N=23), all grade): (4) %
TRAE dry skin, number (≤65 mg BID (N=23), all grade): 6
TRAE dry skin, percent (≤65 mg BID (N=23), all grade): (26) %
TRAE fatigue, number (≤65 mg BID (N=23), all grade): 5
TRAE fatigue, percent (≤65 mg BID (N=23), all grade): (22) %
TRAE nausea, number (≤65 mg BID (N=23), all grade): 5
TRAE nausea, percent (≤65 mg BID (N=23), all grade): (22) %
TRAE rash, number (≤65 mg BID (N=23), all grade): 19
TRAE rash, percent (≤65 mg BID (N=23), all grade): (83) %
TRAE stomatitis, number (≤65 mg BID (N=23), all grade): 2
TRAE stomatitis, percent (≤65 mg BID (N=23), all grade): (9) %
TRAE AST increased, number (≤65 mg BID (N=23), grade ≥3): 1
TRAE AST increased, percent (≤65 mg BID (N=23), grade ≥3): (4.3) %
TRAE alopecia, number (≤65 mg BID (N=23), grade ≥3): 0
TRAE anemia, number (≤65 mg BID (N=23), grade ≥3): 4
TRAE anemia, percent (≤65 mg BID (N=23), grade ≥3): (17.4) %
TRAE decreased appetite, number (≤65 mg BID (N=23), grade ≥3): 0
TRAE diarrhea, number (≤65 mg BID (N=23), grade ≥3): 0
TRAE dry eye, number (≤65 mg BID (N=23), grade ≥3): 0
TRAE dry skin, number (≤65 mg BID (N=23), grade ≥3): 0
TRAE fatigue, number (≤65 mg BID (N=23), grade ≥3): 0
TRAE nausea, number (≤65 mg BID (N=23), grade ≥3): 0
TRAE paronychia, number (≤65 mg BID (N=23), grade ≥3): 0
TRAE rash, number (≤65 mg BID (N=23), grade ≥3): 0
TRAE stomatitis, number (≤65 mg BID (N=23), grade ≥3): 0
TEAE ALT increased, number (percent) [2]: 2 (8.7)
TEAE AST increased, number (percent) [2]: 3 (13.0)
TEAE alopecia, number (percent) [2]: 3 (13.0)
TEAE anemia, number (percent) [2]: 12 (52.2)
TEAE arthralgia, number (percent) [2]: 4 (17.4)
TEAE constipation, number (percent) [2]: 7 (30.4)
TEAE cough, number (percent) [2]: 4 (17.4)
TEAE decreased appetite, number (percent) [2]: 8 (34.8)
TEAE diarrhea, number (percent) [2]: 7 (30.4)
TEAE dizziness, number (percent) [2]: 2 (8.7)
TEAE dry eye, number (percent) [2]: 1 (4.3)
TEAE dry skin, number (percent) [2]: 6 (26.1)
TEAE dyspnea, number (percent) [2]: 6 (26.1)
TEAE edema peripheral, number (percent) [2]: 4 (17.4)
TEAE fatigue, number (percent) [2]: 5 (21.7)
TEAE headache, number (percent) [2]: 4 (17.4)
TEAE insomnia, number (percent) [2]: 2 (8.7)
TEAE nausea, number (percent) [2]: 6 (26.1)
TEAE pyrexia, number (percent) [2]: 2 (8.7)
TEAE rash, number (percent) [2]: 20 (87.0)
TEAE stomatitis, number (percent) [2]: 2 (8.7)
TEAE vomiting, number (percent) [2]: 4 (17.4)
